Protein sequences, listed by entry. Tags and fused reporters are not part of them.
UniProt Q16539, whole entry: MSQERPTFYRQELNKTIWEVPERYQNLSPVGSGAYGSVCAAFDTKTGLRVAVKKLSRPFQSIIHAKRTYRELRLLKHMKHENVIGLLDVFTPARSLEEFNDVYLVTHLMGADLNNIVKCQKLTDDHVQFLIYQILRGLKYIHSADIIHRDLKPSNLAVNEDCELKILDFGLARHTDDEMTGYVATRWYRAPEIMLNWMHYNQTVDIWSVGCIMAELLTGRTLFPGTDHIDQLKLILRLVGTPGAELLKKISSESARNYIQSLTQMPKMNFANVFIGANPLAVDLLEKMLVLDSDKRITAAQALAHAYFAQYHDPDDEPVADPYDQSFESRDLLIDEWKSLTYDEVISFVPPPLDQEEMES

In patent publication US20040171659A1, “Methods for treating diabetes” (priority 2002, published 2004):

Columns and labels:
[1] = target: p38 MAPK (Homo sapiens, UniProt Q16539); assay: phosphorylation assay of p38 MAPK activity (see Kumar); format: biochemical; settings: read-out: IC50 value as quantitated according to Kumar; criterion met by the inhibitor used in the experiments
[2] = system: NOD mice; assay: Preventive studies in pre-diabetic NOD mice, 10 weeks of treatment in the diet; settings: for Diabetes incidence at 18 weeks: diabetes = blood glucose greater than 120 mg/dl, vehicle 60%
[3] = p38 MAP kinase inhibitor in serum samples by LC/MS/MS; settings: during the study period
[4] = system: mildly hyperglycemic NOD mice; assay: Therapeutic studies on mildly hyperglycemic NOD mice, 17 days
[5] = system: mildly hyperglycemic NOD mice; assay: Fasting blood glucose and glucose tolerance studies in mildly hyperglycemic NOD mice
[6] = system: severely hyperglycemic NOD mice; assay: Studies on severely hyperglycemic NOD mice, 17 days; settings: high dose
[7] = system: NOD mice; assay: Example 2: incidence of diabetes and HSP 60 expression in NOD mice
[8] = 600 mg/kg in feed, 13 and 18 weeks

Structure (SMILES): COc1cc2c(cc1C(=O)N1CCC(Cc3ccc(F)cc3)CC1)c(C(=O)C(=O)N(C)C)cn2C
- IC50 [1]: ≤ 5 µM
- Body weight loss ([2]; 10 weeks, vs. vehicle group): significantly reduced body weight loss
- Onset of diabetes ([2]; blood glucose greater than 120 mg/dl, p<0.01 vs. vehicle): dose-dependent delay in the onset of diabetes
- Blood glucose levels ([2]; both dose groups, vs. vehicle group): significantly lowered blood glucose levels
- Serum insulin levels ([2]; both dose groups, increase significant at high dose): increased serum insulin levels
- Insulitis scores ([2]; both doses, p<0.05 vs. vehicle): suppressed insulitis scores
- Ratio of CD+4 and CD+8 T cells ([2]; high dose, 10 weeks): without affecting their ratio
- CD+4 and CD+8 T cells infiltration into the beta cells ([2]; high dose, 10 weeks, immunohistochemistry): remarkably suppressed
- p38 expression in the T cells infiltrated into the beta cells ([2]; high dose, 10 weeks, p<0.001 vs. vehicle): significantly decreased
- Diabetes incidence at 18 weeks ([2]; high dose): 10%
- Lymphocyte infiltration of pancreata (H&E histology) ([2]; low and high doses, after 10 weeks): only minor lymphocyte infiltration
- Diabetes incidence at 18 weeks ([2]; low dose): 30%
- p38 MAP kinase inhibitor in the serum ([3]; high dose group): 1.8 µM
- p38 MAP kinase inhibitor in the serum ([3]; low dose group): 0.6 µM
- Weight loss ([4]; 17 days, p<0.05 vs. vehicle): decrease in weight loss
- Insulin levels ([4]; 17 days, vs. vehicle): higher insulin levels
- Development of hyperglycemia (blood glucose) ([4]; low and high dose, by day 17): dose-dependently prevented the development of hyperglycemia
- Oral glucose tolerance ([5]; 17 days, oral glucose challenge 2 g/kg, p<0.05 vs. vehicle): improved glucose tolerance
- Fasting blood glucose levels ([5]; high dose, day 17, p<0.05 vs. vehicle): lower fasting blood glucose levels
- Glucose tolerance at 30 minutes of the test ([5]; high dose, p<0.001 vs. vehicle): highly significant improvement in glucose tolerance
- Blood glucose [6]: no effect
- Body weight [6]: no effect
- Serum insulin levels [6]: no effect
- Blood glucose levels [7, 8]: lowered blood glucose levels
- Development of Type-1 diabetes (percent incidence) [7, 8]: prevented the development of Type-1 diabetes
- HSP60 expression in pancreata (immunohistochemistry) ([7]; 13 and 18 weeks): reduced HSP60 expression
- Percent of HSP 60 positive lymphocytes in pancreatic islets ([7]; week 13 and 18): reduced levels expression of HSP 60
